# Measured affinities in a library of Ab-14 heavy chain variants

Target peptide (SARS-CoV-2 spike, HR2 region): PDVDLGDISGINAS

Parent: Ab-14, a human scFv built as VH, the linker GGGGSGGGGSGGGGS, VL. Only the CDRs of the heavy chain vary.
VH: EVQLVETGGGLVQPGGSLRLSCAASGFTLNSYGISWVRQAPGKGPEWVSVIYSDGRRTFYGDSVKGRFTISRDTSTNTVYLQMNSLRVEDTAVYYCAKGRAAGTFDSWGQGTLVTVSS
VL: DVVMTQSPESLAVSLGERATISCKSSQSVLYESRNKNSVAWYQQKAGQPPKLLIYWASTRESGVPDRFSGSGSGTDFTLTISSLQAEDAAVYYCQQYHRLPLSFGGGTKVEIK

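AAYL49 was designed without a model: most single CDR substitutions and a random sample of double and triple ones. The scFvs were displayed on barcoded MATa yeast, the peptide on MATalpha yeast. Binding brings cells together so that they mate, and sequencing counts the barcode pairs among the diploids. A regression on co-assayed BCL2-family reference pairs converts the normalised counts of each replicate to an apparent Kd. There are three technical replicates.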

Variants are written as CDR1, CDR2 and CDR3 of the heavy chain (limits as in the source). Parent: GFTLNSYGIS, VIYSDGRRTFYGDSVK, GRAAGTFDS. All variants listed here change G33 of the VH, counted from its first residue. The Kd shown is the geometric mean over detected replicates; a lower Kd is a better binder. "nd" means that the variant was in the library but no mating with the target was seen in any replicate; the authors take this as a sign of poor binding, and no number exists. Nonspecific signal, from three strains lacking the peptide, appeared in 15% of pairings of library AAYL49, centred on 11 µM (5% of these signals below 680 nM); values are not corrected for it.

CDR-H1,CDR-H2,CDR-H3,Kd,replicates with signal
GFTLNSYDIK,VIYSDGRRTFTGDSVK,GRAAGTFDS,14 µM,2/3
GFTLNSYDIS,VIYSDGQRTFRGDSVK,GRAAGTFDS,1.8 mM,1/3
GLTLNSYEIS,VIYSDGRRTFYGDSVK,GRASGTFDS,610 µM,1/3
GFTLNSYYIS,FIYSDGKRTFYGDSVK,GRAAGTFDS,nd,0/3
GFTLNSYSIS,VIYSDGRRTFYGDSVK,GGAAGTFDS,91 µM,2/3
GFTLNSYQIF,VIYSDGRRTFYGDSVK,GRAAGTFDS,nd,0/3
GFTLNSYPIS,VIYSDGRRTFYGDSVK,GRAAGTFDS,49 µM,2/3
GFTLYSYNIS,VIYSDGRRTEYGDSVK,GRAAGTFDS,nd,0/3
GFTLNSYVIS,VIYSDGPRTFYGDSVK,GRAAGTFDS,nd,0/3
GFTLESYLIS,VIYSDGRRTFYGDSVK,GRAAGTFDS,nd,0/3
GFTLNSYMIS,VIYSDGRRTFYGDSVK,GRAAGTMDD,8.1 µM,1/3
GFTLNSYYIS,VIYSDGRRTFYGDSVK,LRAAGTFDD,50 µM,2/3
GFTLNSYVIS,VIYSDGRRTFMGDSFK,GRAAGTFDS,nd,0/3
GFTLNSYKIQ,VIYSDGLRTFYGDSVK,GRAAGTFDS,nd,0/3
GFTLNSYHIS,VIYSDGRRTFYGDSPK,GRAAGTFDS,nd,0/3
GFTLNSYNIS,VIYSKGRRTFYGDSVK,GRRAGTFDS,410 µM,1/3
GFTLFSYYIS,VIYSDGRRTFYGDSVK,GWAAGTFDS,nd,0/3
GFTLNSWIIS,VIYSDGRRTFYGDSVK,GRAAGTWDS,nd,0/3
GFTLNSYDIS,VIYSDGRRTFYGDSVK,GRWRGTFDS,nd,0/3
GFRLNSYSIS,VIYSDGRRTFYGDSVK,GRAPGTFDS,nd,0/3
GFTLNSYYIS,VIYSDGRRTFYGDSVT,GRAAGTFDS,nd,0/3
GFRLNSYAIS,VIYSDGRRTFYGDSVK,GRAAGYFDS,6.6 µM,1/3
GFTLNSDTIS,VIYSDGRRTFYGDSVK,GRAAGTFDS,23 µM,2/3
GFTLNSYWIS,VIYSDGRRTFYGDSVT,GRAAGTFYS,nd,0/3
GFTLNSYSIS,VIYSCGRRTFYGDSVK,QRAAGTFDS,nd,0/3
GFTLNSYEIS,VIYSDGHRTKYGDSVK,GRAAGTFDS,2.7 µM,1/3
GFTLNSYTIS,VIYSDGRRTFYGDSVK,RTAAGTFDS,nd,0/3
DFTLNSYDIS,MIYSDGRRTFYGDSVK,GRAAGTFDS,nd,0/3
GFTLNSYDIS,VQYSDGRRTFYADSVK,GRAAGTFDS,43 µM,2/3
GFTLNSYPIS,VRYSQGRRTFYGDSVK,GRAAGTFDS,15 µM,1/3
GFTLNSYPIS,VIYSDGRRTFYGDSVK,GRAPGTFDS,nd,0/3
GFTLNSYECS,VIYSDGRRTFRGDSVK,GRAAGTFDS,nd,0/3
GFTLNSYPIS,VIYSDGRRTFFGDSVK,GRAAGTFDS,nd,0/3
GFTLNSYCIS,VIYSDGRRTFYGDSVK,GAAAGTFTS,nd,0/3
GFTLNSYVIS,VIISDGRRTFYGDSVK,GRAAGTFDS,38 µM,2/3
GFTLNSYYIS,VAYSDPRRTFYGDSVK,GRAAGTFDS,nd,0/3
SFTLNSNWIS,VIYSDGRRTFYGDSVK,GRAAGTFDS,720 nM,1/3
GFTLNSYEIS,VIYSDGWRTFYGDSVK,GRAAGTFGS,nd,0/3
GFGLNSYSIS,VIYSDGRRTFYGDSVK,GRAAGTFDS,4.6 µM,1/3
GFTLNSYSIS,VIYSDGRRTFYGDSVK,GRAAGTFDS,30 µM,1/3
GFTLNSYIIS,VIYSDGRRTLYGDSVK,GRQAGTFDS,nd,0/3
GFTLNSYSIS,VIYSDCRRTFYGDSVK,GRAAGTFDS,nd,0/3
GFTLNSKVIS,VIYSDGRRTFYGDSVK,GRARGTFDS,nd,0/3
GFLLNSYDIS,VIYSDGRRTFYGDSVK,GRAAGTFDS,34 µM,2/3
GFTLNSYEIS,VIYSDGRRKFYGDSVK,GRAAGTFDS,nd,0/3
GFTLNSYIES,VIYSDGRRTFYGDSVK,NRAAGTFDS,nd,0/3
GFTLNSYAIS,VIYSDGRRTNYGPSVK,GRAAGTFDS,98 µM,1/3
GFTLNDYDIS,VIESDGRRTFYGDSVK,GRAAGTFDS,15 µM,1/3
GFTLNSYHIS,VIYSDASRTFYGDSVK,GRAAGTFDS,nd,0/3
KFTLNSYFIS,VIYSDGRRTPYGDSVK,GRAAGTFDS,38 µM,1/3
GFTLNSYVIS,VIYSDGRRTFYGDSVT,GRAAGTWDS,nd,0/3
GFTLNSYSIS,LIYSDGRRTFYGDSVK,GRAAGHFDS,nd,0/3
GFTVNSYYIS,VICSDGRRTFYGDSVK,GRAAGTFDS,35 µM,2/3
GFTLNSYCIS,VIYSDGRRTFYGDSIK,GRAAGTFDS,nd,0/3
GFTLNSYMIS,VIYSDGRRTFYHDSVK,GRAAGWFDS,46 µM,2/3
GFTLNSYYIS,VIYSDGRRTFYGDSRK,GRAAGTPDS,1.5 µM,1/3
GFTLNSYVES,VIYSDGRRTFYGDSVK,GRAYGTFDS,nd,0/3
GFTLNSYDIS,VIYSDGRRTFYGDSVK,GRVTGTFDS,nd,0/3
GFTLNSYYIS,VIYSDGRRTFPGDSVK,GPAAGTFDS,nd,0/3
GKTLNSYRIS,VIYSDGRRTFYGDSTK,GRAAGTFDS,11 µM,1/3
GFTLNSYCIS,VIRSDGRRTFYGDSVK,GRARGTFDS,nd,0/3
GFTLNSTFPS,VIYSDGRRTFYGDSVK,GRAAGTFDS,38 µM,1/3

Source: Engelhart et al. 2022 (doi:10.1038/s41597-022-01779-4), MIT Lincoln Laboratory and A-Alpha Bio; data file from the FLAb repository.